{"source": "PubChem BioAssay AID2806", "about": "(Sanford-Burnham Center for Chemical Genomics, 2010)", "note": "The list shows a part of the results, in another mix than the full data. Activity calls are given as the source filed them.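 How the source made its calls: active means inhibition of at least 40% at 10 µM in the primary screen; inactive means the rest.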", "data": [{"test_system": "intestinal alkaline phosphatase [Mus musculus]", "experiment": "mouse intestinal phosphatase enzyme inhibition – biochemical, luminescence, uHTS, primary screen (AID 2806);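 further: plate controls were DMSO with enzyme for no effect and no enzyme wells for full effect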", "settings": "purified mouse IAP, CDP-Star luminescence, 30 min; at 10 µM; active compounds read high", "values": [{"smiles": "Cc1ccccc1OP(=O)(Nc1ccccn1)Oc1ccccc1C", "inhibition": "inactive: 0%"}, {"smiles": "Cc1ccc(OP(=O)(Nc2ccccn2)Oc2ccc(C)cc2)cc1", "inhibition": "inactive: -5.5%"}, {"smiles": "CC(=O)NC(SC(=S)N(CC(C)C)CC(C)C)C(Cl)(Cl)Cl", "note": "(stereo not drawn)", "inhibition": "inactive: -3.6%"}, {"smiles": "COC(=O)c1cc2c(s1)N=C(c1ccccc1)N(C)P2(=O)N1CCOCC1", "note": "(stereo not drawn)", "inhibition": "inactive: -3%"}, {"smiles": "CCC(=O)N1C2C3N(C(=O)CC)C1C1N(C(=O)CC)C(C(N1C(=O)CC)N3C(=O)CC)N2C(=O)CC", "inhibition": "inactive: 4.4%"}, {"smiles": "O=C(OC1CN2CCC1CC2)c1ccccc1", "note": "(stereo not drawn)", "inhibition": "inactive: -5.6%"}, {"smiles": "Cc1ccc(NP(=O)(Oc2ccccc2F)Oc2ccccc2F)nc1", "inhibition": "inactive: -7.7%"}, {"smiles": "CN(C(=O)Cc1ccc(Cl)c(Cl)c1)[C@H]1CCCC[C@@H]1N1CCCC1", "inhibition": "inactive: -2.1%"}, {"smiles": "Cc1cc(SC(NC(=O)c2ccc(F)cc2)C(Cl)(Cl)Cl)ncn1", "note": "(stereo not drawn)", "inhibition": "inactive: -3.8%"}, {"smiles": "CCOP(=O)(Nc1ccccc1)OCC", "inhibition": "inactive: 9.5%"}, {"smiles": "CC(=O)Nc1ccc([As](=O)(O)O)cc1", "inhibition": "inactive: -1.8%"}, {"smiles": "O=C(O)c1ccccc1[As](=O)(O)O", "inhibition": "inactive: 4.5%"}, {"smiles": "O=P(Nc1nc2ccc(Cl)cc2s1)(c1ccccc1)c1ccccc1", "inhibition": "inactive: -4.1%"}, {"smiles": "CCN(N=Nc1nonc1N)c1nonc1N", "inhibition": "inactive: 15.6%"}, {"smiles": "O=[N+]([O-])c1cc([N+](=O)[O-])c(CCN2CCOCC2)c([N+](=O)[O-])c1", "inhibition": "inactive: 22.8%"}, {"smiles": "Cc1ccc(OP(=O)(Nc2nccs2)Oc2ccc(C)cc2)cc1", "inhibition": "inactive: 10.8%"}, {"smiles": "COc1ccccc1OP(=O)(Nc1ccc(C)cn1)Oc1ccccc1OC", "inhibition": "inactive: 5.5%"}, {"smiles": "CN1CCCC(OC(=O)C(c2ccccc2)c2ccccc2)C1", "note": "(stereo not drawn)", "inhibition": "inactive: 5.7%"}, {"smiles": "Clc1ccc(Cl)c(NC2=NCC(CBr)S2)c1", "note": "(stereo not drawn)", "inhibition": "inactive: -2.3%"}, {"smiles": "NC(=O)c1cc([N+](=O)[O-])cc([N+](=O)[O-])c1N", "inhibition": "inactive: -8.3%"}, {"smiles": "Cc1ccc(N/C(=N/P(=O)(N2CCOCC2)N2CCOCC2)N2CCOCC2)cc1", "inhibition": "inactive: 11.6%"}, {"smiles": "CN(C(=O)Cc1ccc(Cl)c(Cl)c1)[C@H]1CCCC[C@H]1N1CCCC1", "inhibition": "inactive: 3%"}, {"smiles": "Nc1cc(N)c2nonc2c1[N+](=O)[O-]", "inhibition": "inactive: 12.2%"}, {"smiles": "CC(C)CC(=O)NC(Sc1ccc(Cl)cc1)C(Cl)(Cl)Cl", "note": "(stereo not drawn)", "inhibition": "inactive: -7.1%"}, {"smiles": "O=C(NC(Sc1ccncn1)C(Cl)(Cl)Cl)c1ccccc1", "note": "(stereo not drawn)", "inhibition": "inactive: -8%"}, {"smiles": "Cc1c2non([O-])c-2c(C)[n+](=O)[n+]1[O-]", "inhibition": "inactive: -1.9%"}, {"smiles": "Oc1ccccc1CNc1ccccn1", "inhibition": "inactive: -3.1%"}, {"smiles": "O=[N+]([O-])c1cccc2n[nH]nc12", "inhibition": "inactive: 6.3%"}, {"smiles": "CC(=O)N1C2C3N(C(C)=O)C1C1N(C(C)=O)C(C(N1C(C)=O)N3C(C)=O)N2C(C)=O", "inhibition": "inactive: 4.8%"}, {"smiles": "CCc1nc2c(n1)c1c(non1O)c1c2no[n+]1[O-]", "inhibition": "inactive: 6.1%"}, {"smiles": "O=[N+]([O-])c1cc([N+](=O)[O-])c(CCNc2ccccc2)c([N+](=O)[O-])c1", "inhibition": "inactive: 12.2%"}, {"smiles": "Cc1ccc(NP(=O)(Oc2ccccc2)Oc2ccccc2)nc1", "inhibition": "inactive: -18.2%"}, {"smiles": "COc1ccc(C2=NCC(CBr)S2)cc1", "note": "(stereo not drawn)", "inhibition": "inactive: -5.9%"}, {"smiles": "CN(C)C(=O)OCCc1n(C)cc[n+]1C", "inhibition": "inactive: 3.5%"}, {"smiles": "CC(C)=N/N=C(\\N)N[N+](=O)[O-]", "inhibition": "inactive: -3.2%"}, {"smiles": "CC1CCN(C(=O)Oc2c(Cl)cc(Cl)c3cccnc23)CC1", "inhibition": "inactive: 3.6%"}, {"smiles": "C[N+]1=C2C=CC=CC=C2SC12C([N+](=O)[O-])=CC([N+](=O)[O-])=C[C-]2[N+](=O)[O-]", "note": "(stereo not drawn)", "inhibition": "active: 60.4%"}, {"smiles": "Nc1ccc([As](=O)(O)c2ccc(N)cc2)cc1", "inhibition": "inactive: 1.8%"}, {"smiles": "CCN(/C(=N/P(=O)(N1CCOCC1)N1CCOCC1)N1CCOCC1)c1ccc(OC)cc1", "inhibition": "inactive: 3.2%"}, {"smiles": "O=C(Nc1cc([As](=O)(O)O)ccc1O)c1ccccc1", "inhibition": "inactive: 16.7%"}, {"smiles": "O=[N+]([O-])c1cccc(NC2=NCC(CBr)S2)c1", "note": "(stereo not drawn)", "inhibition": "inactive: 7.4%"}, {"smiles": "CC(C)(C)C(=O)NC(Sc1ccncn1)C(Cl)(Cl)Cl", "note": "(stereo not drawn)", "inhibition": "inactive: -4.7%"}, {"smiles": "O=[N+]([O-])c1ncn(CCn2ncnc2[N+](=O)[O-])n1", "inhibition": "inactive: 1.7%"}]}]}
